The text below walks through data of ChEMBL document CHEMBL3351383, “Combination of chiral linkers with thiophenecarboximidamide heads to improve the selectivity of inhibitors of neuronal nitric oxide synthase” (Bioorg Med Chem Lett, 2014).

The nature of test [1]: Selectivity index, ratio of Ki for bovine eNOS to KI for rat nNOS.
The nature of test [2]: Selectivity index, ratio of Ki for mouse macrophage iNOS to KI for rat nNOS.

Molecules are shown by their SMILES.

As to `N=C(Nc1cccc(OC[C@@H]2C[C@@H](Oc3cccc(NC(=N)c4cccs4)c3)CN2)c1)c1cccs1`, the Ratio Ki is 119 in test [1] and 86 in test [2].
